ChEMBL document CHEMBL1144273, “Synthesis and SAR studies of 3-phenoxypropyl piperidine analogues as ORL1 (NOP) receptor agonists” (Bioorg Med Chem Lett, 2005)

Species: Mus musculus
Assay: Inhibitory concentration using mouse vas deferens (MVD) assay

COc1ccc(C)c(OC(CCN2CCC(n3c(=O)[nH]c4ccccc43)CC2)C(C)C)c1 (stereo unspecified) [ORGANON]
IC50: 977 nM
